The values below come from patent US10799620B2, “Ring and tubular structures and methods of synthesis and use thereof” (BOARD OF REGENTS OF THE UNIVERSITY OF NEBRASKA, priority 2016, dated 2020).

Read-outs that look alike come from different tables or passages of the source.

For data set [1] the following is noted: FIG. 2.
The conditions of data set [2]: PU nanofiber ring, BSA located in shell, FIG. 6C.

Take bovine serum albumin [BSA]: the “initial in vitro release of BSA” value in data set [1] (from (PCL) nanofiber ring device) is on record as “significantly inhibits the initial release”; in data set [1] (from traditional electrospun (PCL) nanofiber membranes), “large initial burst”. Besides, the “release profile from shell of ring” value in data set [2] was “released in an initial burst”.
